Values of other authors in PMC12458545, “Repurposing a Detrimental Antibody Epitope as Targeted Therapeutics for Sepsis and Rheumatoid Arthritis” (Research Square, 2025).

Tested on: CLP-induced sepsis
Conditions: repetitive buprenorphine use in CLP; cited from earlier work

## buprenorphine [reference compound]
  sepsis surrogate markers and lethality: could paradoxically elevate sepsis surrogate markers and increase animal lethality
